In US9388149B2, “Disubstituted 3,4-diamino-3-cyclobutene-1,2-dione compounds for use in the treatment of chemokine-mediated diseases” (GALDERMA RESEARCH & DEVELOPMENT, priority 2011, dated 2016) one finds IC50 data, which are given here for twelve molecules.

Protein sequences, listed by entry. Tags and fused reporters are not part of them. Lines headed by an entry give the natural chain unless they say otherwise; changes in a name come on top. Residues count along the entry.
UniProt P32248, 25-378: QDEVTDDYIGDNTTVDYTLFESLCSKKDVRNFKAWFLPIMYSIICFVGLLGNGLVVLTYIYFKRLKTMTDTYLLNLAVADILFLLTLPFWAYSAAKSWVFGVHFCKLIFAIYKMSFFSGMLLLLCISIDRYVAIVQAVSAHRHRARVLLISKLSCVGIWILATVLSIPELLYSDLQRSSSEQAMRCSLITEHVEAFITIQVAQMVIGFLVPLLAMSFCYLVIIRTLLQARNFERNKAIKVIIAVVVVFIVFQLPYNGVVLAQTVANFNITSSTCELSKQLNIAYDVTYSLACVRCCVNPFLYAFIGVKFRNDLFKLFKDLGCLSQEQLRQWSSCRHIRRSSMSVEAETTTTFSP
UniProt P25024, whole entry: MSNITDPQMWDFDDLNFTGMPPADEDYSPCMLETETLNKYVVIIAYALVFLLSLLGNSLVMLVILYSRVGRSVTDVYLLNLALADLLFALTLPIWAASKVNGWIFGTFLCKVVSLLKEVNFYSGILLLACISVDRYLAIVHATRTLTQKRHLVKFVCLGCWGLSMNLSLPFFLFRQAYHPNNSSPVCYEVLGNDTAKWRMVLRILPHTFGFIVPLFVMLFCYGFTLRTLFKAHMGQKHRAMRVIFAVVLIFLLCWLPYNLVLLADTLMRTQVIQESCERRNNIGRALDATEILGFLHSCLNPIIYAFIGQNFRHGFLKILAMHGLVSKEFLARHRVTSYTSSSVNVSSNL
UniProt P51679: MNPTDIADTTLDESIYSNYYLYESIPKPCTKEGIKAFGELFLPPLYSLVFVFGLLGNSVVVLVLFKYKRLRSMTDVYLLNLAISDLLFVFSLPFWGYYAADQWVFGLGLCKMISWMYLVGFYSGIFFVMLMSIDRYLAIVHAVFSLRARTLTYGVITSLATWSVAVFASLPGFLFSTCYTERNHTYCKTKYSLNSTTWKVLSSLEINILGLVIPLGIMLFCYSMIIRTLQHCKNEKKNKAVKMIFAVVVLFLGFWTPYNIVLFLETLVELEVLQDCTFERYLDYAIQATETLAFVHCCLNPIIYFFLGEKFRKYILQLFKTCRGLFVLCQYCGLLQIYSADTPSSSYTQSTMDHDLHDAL
UniProt P49682: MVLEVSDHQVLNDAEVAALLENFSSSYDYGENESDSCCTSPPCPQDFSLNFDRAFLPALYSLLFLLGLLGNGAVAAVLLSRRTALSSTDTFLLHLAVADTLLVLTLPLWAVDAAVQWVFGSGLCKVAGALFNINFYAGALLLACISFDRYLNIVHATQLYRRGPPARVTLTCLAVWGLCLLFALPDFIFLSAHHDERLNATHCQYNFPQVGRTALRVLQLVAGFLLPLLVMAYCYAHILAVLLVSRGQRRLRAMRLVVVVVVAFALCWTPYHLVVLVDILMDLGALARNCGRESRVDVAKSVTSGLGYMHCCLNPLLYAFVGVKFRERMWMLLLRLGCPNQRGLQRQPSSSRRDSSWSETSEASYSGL
UniProt P25025, whole entry: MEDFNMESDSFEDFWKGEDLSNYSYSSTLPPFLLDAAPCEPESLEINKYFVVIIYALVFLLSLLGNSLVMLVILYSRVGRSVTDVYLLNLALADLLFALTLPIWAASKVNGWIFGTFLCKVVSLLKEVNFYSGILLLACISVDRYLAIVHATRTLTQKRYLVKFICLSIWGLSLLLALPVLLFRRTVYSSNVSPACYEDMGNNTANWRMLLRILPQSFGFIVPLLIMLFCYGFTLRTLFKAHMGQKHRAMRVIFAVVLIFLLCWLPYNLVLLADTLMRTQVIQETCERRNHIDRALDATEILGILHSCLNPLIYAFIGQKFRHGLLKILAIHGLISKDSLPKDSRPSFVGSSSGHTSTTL

Structures are written as SMILES.

One assay addresses CCR7 (Homo sapiens (Human), UniProt P32248). Briefly: Calcium flux on Chem-1 cells expressing the chemokine receptor (FLIPR TETRA), antagonist mode. The format is cell-based. Particulars: antagonist activity, reference agonist at AC80. A general note: Calcium assays in cells follow changes in intracellular calcium, usually with a dye or a luminescent sensor.
Another assay concerns the target CXCR1 receptor (Homo sapiens (Human), UniProt P25024). Briefly: β-arrestin recruitment test, U2OS hCXCR1 β-arrestin cells stimulated with CXCL8. The format is cell-based. The note with it: inhibition of CXCL8 (10 nM) induced β-arrestin 2 recruitment; *9999 signifies not active. On the procedure: (§1) The in vitro affinity of the compounds of the present invention for the CXCR1 and CXCR2 receptors was determined on a functional test of the β-arrestin recruitment after receptor activation type.
(§2) In order to evaluate the direct interaction of the CXCR2 or CXCR1 receptor with β-arrestin 2, a β-arrestin 2 recruitment test for CXCR2 or CXCR1 based on β-galactosidase enzyme complementation (Olson K R, Eglen R M. Beta galactosidase complementation: a cell-based luminescent assay platform for drug discovery. Assay Drug Dev Technol. 2007 February; 5(1); 137-44), as established by DiscoveRx Corporation was used. The stimulation of these two cell lines with CXCL8 (10 nM) induces β-arrestin 2 recruitment, as indicated by a significant increase in the induction factor.
(§3) β-Arrestin recruitment test: “PathHunter HEK293-CXCR2” or “U2OS hCXCR1 β-arrestin” cells (DiscoveRx Corporation) were seeded overnight at 10 000 cells/well (384-well format) in 20 μl of Opti MEM I medium. A preincubation with the antagonist or the vehicle for 30 min at 37° C. and 5% CO2 was followed by 60 minutes of stimulation with CXCL8 at 37° C. and 5% CO2. The cells were then placed at ambient temperature for 30 minutes. The PathHunter detection reagent (DiscoveRx Corporation) was added. After incubation for 60 min at ambient temperature, the β-galactosidase induced by the luminescence during the β-arrestin-CXCR2 interaction was measured for 0.3 s in an Envision 2102 Multilabel Reader (PerkinElmer Life and Analytical Sciences). The data were analyzed by means of a non-linear curve procedure using the XLFit4 exploitation software (IDBS) and the IC50 values were determined.
(Arrestin recruitment assays detect the binding of arrestin to an activated receptor.)

The target in another assay is CCR4 (Homo sapiens (Human), UniProt P51679). Briefly: Calcium flux on Chem-1 cells expressing the chemokine receptor (FLIPR TETRA), antagonist mode. Particulars: IC50 CCR4, antagonist activity, reference agonist at AC80.
The target of the next assay is CXCR3 (Homo sapiens (Human), UniProt P49682). The assay is described as above. Particulars: IC50 CXCR3, antagonist activity, reference agonist at AC80.
Another assay concerns the target CXCR2 receptor (Homo sapiens (Human), UniProt P25025). Put plainly: β-arrestin recruitment test, PathHunter HEK293-CXCR2 cells stimulated with CXCL8. Particulars: inhibition of CXCL8 (10 nM) induced β-arrestin 2 recruitment; *9999 signifies not active. The class given is cell-based. On the procedure:
as §1, §2, §3

As a reminder, the IC50 is the concentration that inhibits the measured activity by half. As to `Cc1ccc(C(Nc2c(Nc3cccc(C(=O)N(C)C)c3O)c(=O)c2=O)C2CCCS2)o1` (single isomer, unassigned) [2 (diastereoisomer 2), 2-Hydroxy-N,N-dimethyl-3-(2-{[(5-methylfuran-2-yl)-(tetrahydrothiophen-2-yl)methyl]amino}-3,4-dioxo-cyclobut-1-enylamino)benzamide], the IC50 stood at 1500 nM on CCR7; 44 nM at CXCR1 receptor; 52 nM at CCR4; 1700 nM on CXCR3; 1700 nM at CXCR3 (value of the text).
With `Cc1ccc(C(Nc2c(Nc3cccc(C(=O)N(C)C)c3O)c(=O)c2=O)C2(C)CCCO2)o1` (single isomer, unassigned) [Example 1 (Enantiomer 1 of diastereoisomer 2), 2-Hydroxy-N,N-dimethyl-3-(2-{[(5-methylfuran-2-yl)-(2-methyltetrahydrofuran-2-yl)methyl]amino}-3,4-dioxo-cyclobut-1-enylamino)benzamide], the IC50 at CXCR1 receptor is 10000 nM.
The same measure, in the same setting: for `Cc1ccc(C(Nc2c(Nc3cccc(C(=O)N(C)C)c3O)c(=O)c2=O)C2CCCS2)o1` (single isomer, unassigned) [Example 2 (Enantiomer 1 of diastereoisomer 1), 2-Hydroxy-N,N-dimethyl-3-(2-{[(5-methylfuran-2-yl)-(tetrahydrothiophen-2-yl)methyl]amino}-3,4-dioxo-cyclobut-1-enylamino)benzamide] the value was 4550 nM; for `Cc1ccc(C(Nc2c(Nc3cccc(C(=O)N(C)C)c3O)c(=O)c2=O)C2CCCS2)o1` (single isomer, unassigned) [Example 2 (Enantiomer 1 of diastereoisomer 2), 2-Hydroxy-N,N-dimethyl-3-(2-{[(5-methylfuran-2-yl)-(tetrahydrothiophen-2-yl)methyl]amino}-3,4-dioxo-cyclobut-1-enylamino)benzamide], 77 nM; for `Cc1ccc(C(Nc2c(Nc3cccc(C(=O)N(C)C)c3O)c(=O)c2=O)C2CCCS2)o1` (single isomer, unassigned) [Example 2 (Enantiomer 2 of diastereoisomer 1), 2-Hydroxy-N,N-dimethyl-3-(2-{[(5-methylfuran-2-yl)-(tetrahydrothiophen-2-yl)methyl]amino}-3,4-dioxo-cyclobut-1-enylamino)benzamide], 692 nM.
Molecule `Cc1ccc(C(Nc2c(Nc3cccc(C(=O)N(C)C)c3O)c(=O)c2=O)C2CCCS2)o1` (single isomer, unassigned) [Example 2 (Enantiomer 2 of diastereoisomer 2), 2-Hydroxy-N,N-dimethyl-3-(2-{[(5-methylfuran-2-yl)-(tetrahydrothiophen-2-yl)methyl]amino}-3,4-dioxo-cyclobut-1-enylamino)benzamide] showed a half-inhibitory concentration (IC50) against CXCR1 receptor of 1560 nM.
The same measure, in the same setting: for `Cc1ccc(C(Nc2c(Nc3cccc(C(=O)N(C)C)c3O)c(=O)c2=O)C2CCCS2)o1` (single isomer, unassigned) [Example 2 (diastereoisomer 1), 2-Hydroxy-N,N-dimethyl-3-(2-{[(5-methylfuran-2-yl)-(tetrahydrothiophen-2-yl)methyl]amino}-3,4-dioxo-cyclobut-1-enylamino)benzamide] the value was 661 nM.
`COC(=O)[C@@H]1CCCN1C(=O)c1cccc(Nc2c(NC(c3ccc(C)o3)C3CCCS3)c(=O)c2=O)c1F` (single isomer, unassigned) [Example 3 (Enantiomer 1)]: the IC50 at CXCR1 receptor is 552 nM; at CXCR2 receptor, 195 nM.
On CXCR1 receptor, `COC(=O)[C@@H]1CCCN1C(=O)c1cccc(Nc2c(NC(c3ccc(C)o3)C3CCCS3)c(=O)c2=O)c1F` (single isomer, unassigned) [Example 3 (Enantiomer 2)] showed an IC50 of 8910 nM.
For `COC(=O)[C@H]1CCCN1C(=O)c1cccc(Nc2c(NC(c3ccc(C)o3)C3CCCS3)c(=O)c2=O)c1O` (single isomer, unassigned) [Example 6], the IC50 worked out at 108 nM on CXCR1 receptor and 30 nM at CXCR2 receptor.
On the same counts, the results for `COC(=O)[C@@H]1CCCN1C(=O)c1cccc(Nc2c(NC(c3ccc(C)o3)C3CCCS3)c(=O)c2=O)c1F` (single isomer, unassigned) [Example 15] are 3810 nM and 294 nM.
As to `COC(=O)[C@H]1CCCN1C(=O)c1cccc(Nc2c(NC(c3ccc(C)o3)C3CCCS3)c(=O)c2=O)c1O` (single isomer, unassigned) [Example 20], the half-maximal inhibitory concentration (IC50) is 43 nM against CXCR1 receptor and 21 nM at CXCR2 receptor.
